The values below come from ChEMBL document CHEMBL4304809 (ACS Med Chem Lett, 2019).

Sequences of proteins named here, by UniProt entry; tags and fusion partners are left off. A change or cut given only in a name is not applied to a line headed by its entry.
UniProt Q99558: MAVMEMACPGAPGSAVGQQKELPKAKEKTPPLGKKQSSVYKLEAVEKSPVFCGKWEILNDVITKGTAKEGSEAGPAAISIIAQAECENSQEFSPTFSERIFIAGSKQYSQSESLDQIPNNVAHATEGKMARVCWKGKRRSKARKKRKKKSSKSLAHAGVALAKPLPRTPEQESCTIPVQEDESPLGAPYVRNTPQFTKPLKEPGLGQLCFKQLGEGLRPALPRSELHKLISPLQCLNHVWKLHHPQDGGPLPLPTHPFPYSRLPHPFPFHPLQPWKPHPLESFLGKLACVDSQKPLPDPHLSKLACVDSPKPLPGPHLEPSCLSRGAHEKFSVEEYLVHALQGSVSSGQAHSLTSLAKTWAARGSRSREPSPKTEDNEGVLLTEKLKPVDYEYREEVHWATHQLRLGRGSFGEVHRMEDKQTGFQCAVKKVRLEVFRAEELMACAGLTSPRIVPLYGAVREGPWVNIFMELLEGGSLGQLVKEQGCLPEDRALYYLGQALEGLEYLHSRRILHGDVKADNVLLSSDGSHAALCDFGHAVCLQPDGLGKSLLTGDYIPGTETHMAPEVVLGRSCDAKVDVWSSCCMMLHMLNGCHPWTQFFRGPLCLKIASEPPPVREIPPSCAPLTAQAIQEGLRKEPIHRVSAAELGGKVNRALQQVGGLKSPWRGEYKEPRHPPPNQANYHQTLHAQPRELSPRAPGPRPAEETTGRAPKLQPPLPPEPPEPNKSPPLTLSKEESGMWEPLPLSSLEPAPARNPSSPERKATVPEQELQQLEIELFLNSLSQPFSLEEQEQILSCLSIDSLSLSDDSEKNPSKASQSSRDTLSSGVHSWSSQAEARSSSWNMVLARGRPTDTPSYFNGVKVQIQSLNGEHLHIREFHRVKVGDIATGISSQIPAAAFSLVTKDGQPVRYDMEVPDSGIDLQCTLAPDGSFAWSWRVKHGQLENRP

This experiment has as its target Mitogen-activated protein kinase kinase kinase 14 (Homo sapiens, UniProt Q99558). The experiment in a line: Inhibition of NIK (unknown origin) using ATP as substrate by transcreener ADP assay based fluorescence correlation spectroscopic analysis. The format is single protein.
In the case of `Cc1cnc([C@@](C)(O)C#Cc2ccc3c(c2)-c2nc(C(N)=O)cn2C2CC3C2)o1`, the inhibition constant (Ki) (usually the equilibrium dissociation constant of an inhibitor or competing ligand from its target) was greater than 1250 nM.

Regarding `Cc1cnc([C@](C)(O)C#Cc2ccc3c(c2)-c2nc(C(N)=O)cn2C2CC3C2)o1`, the Ki amounted to 0.9 nM. This lies in the sub-nanomolar range.

The molecule `Cc1cc([C@](C)(O)C#Cc2cc3c(cc2F)C2CC(C2)n2c-3nc(C(N)=O)c2C2CC2)no1` had a Ki of 1.7 nM.
